{
  "source": "patent US20040006070A1",
  "about": "“Intraspinal continuous infusion of midazolam hydrochloride for the treatment of pain” (priority 2002, published 2004)",
  "origin": "cited, not measured here",
  "details": "cited from earlier work",
  "data": [
    {"smiles": "CN1CC[C@]23c4c5ccc(O)c4O[C@H]2C(=O)CC[C@H]3[C@H]1C5", "note": "[Hydromorphone]", "values": [
      {"measurement": "potency of intrathecal infusion relative to intrathecal morphine sulfate", "setting": "intrathecal infusion", "result": "approximately 6 times"},
      {"measurement": "potency of intrathecal infusion relative to intravenous infusion", "setting": "intrathecal vs intravenous infusion", "result": "approximately 20 times"},
      {"measurement": "approximate equipotent dose, IT", "setting": "route IT", "result": 1.7},
      {"measurement": "approximate equipotent dose, IV", "setting": "route IV", "result": 33},
      {"measurement": "approximate equipotent dose, PO", "setting": "route PO", "result": 100}
    ]}
  ]
}
